From BindingDB's records for doi:10.1016/j.ejmech.2011.01.042 (Ludwig-Maximilians-University Munich, 2011)

Target: T1, Sodium- and chloride-dependent GABA transporter 3 (Mus musculus, UniProt P31650)
T1 sequence (P31650 whole entry): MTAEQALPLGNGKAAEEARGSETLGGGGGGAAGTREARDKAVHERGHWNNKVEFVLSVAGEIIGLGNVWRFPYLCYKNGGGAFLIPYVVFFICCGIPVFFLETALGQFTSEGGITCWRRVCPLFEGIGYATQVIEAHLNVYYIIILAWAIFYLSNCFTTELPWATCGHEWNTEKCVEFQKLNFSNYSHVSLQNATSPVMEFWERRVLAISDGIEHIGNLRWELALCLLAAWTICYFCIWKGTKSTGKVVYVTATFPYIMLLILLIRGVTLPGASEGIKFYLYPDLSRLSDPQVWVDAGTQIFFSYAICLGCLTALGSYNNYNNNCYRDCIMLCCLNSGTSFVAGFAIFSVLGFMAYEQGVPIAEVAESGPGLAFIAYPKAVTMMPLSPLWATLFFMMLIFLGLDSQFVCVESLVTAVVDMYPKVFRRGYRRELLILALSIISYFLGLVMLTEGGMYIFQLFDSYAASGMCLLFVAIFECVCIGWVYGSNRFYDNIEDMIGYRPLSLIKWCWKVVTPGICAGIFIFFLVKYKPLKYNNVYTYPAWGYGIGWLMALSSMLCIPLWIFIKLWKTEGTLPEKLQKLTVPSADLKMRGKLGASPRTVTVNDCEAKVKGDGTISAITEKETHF

IC50: 8.13 µM
SMILES: NCCCC(=O)O [4-amino-n-[2,3-3H]butyric acid]
